Literature values in patent US20100279974A1, “Nucleosides With Non-Natural Bases as Anti-Viral Agents” (priority 2005, published 2010).

Test system: HCV
Settings: human, in vivo

Structure (SMILES): NC(=O)c1ncn([C@@H]2O[C@H](CO)[C@@H](O)[C@H]2O)n1 [Ribavirin, 1-β-D-ribofuranosyl-1-1,2,4-triazole-3-carboxamide]
- toxicity: known to induce anemia
